From US10919885B2, “Compounds and uses thereof” (Yumanity Therapeutics, Inc., priority 2018, dated 2021)

Sequences of proteins named here, by UniProt entry; tags and fusion partners are left off.
UniProt Q86SK9, whole entry: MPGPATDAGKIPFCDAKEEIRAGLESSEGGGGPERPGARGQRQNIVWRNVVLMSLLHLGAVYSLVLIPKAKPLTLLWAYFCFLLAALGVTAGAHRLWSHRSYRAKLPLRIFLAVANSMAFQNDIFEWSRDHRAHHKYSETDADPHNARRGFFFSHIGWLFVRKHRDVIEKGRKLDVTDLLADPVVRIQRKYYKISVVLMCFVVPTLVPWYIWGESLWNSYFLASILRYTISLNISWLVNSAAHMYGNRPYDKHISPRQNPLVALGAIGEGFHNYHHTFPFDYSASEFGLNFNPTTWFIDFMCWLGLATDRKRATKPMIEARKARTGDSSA
UniProt O00767, whole entry: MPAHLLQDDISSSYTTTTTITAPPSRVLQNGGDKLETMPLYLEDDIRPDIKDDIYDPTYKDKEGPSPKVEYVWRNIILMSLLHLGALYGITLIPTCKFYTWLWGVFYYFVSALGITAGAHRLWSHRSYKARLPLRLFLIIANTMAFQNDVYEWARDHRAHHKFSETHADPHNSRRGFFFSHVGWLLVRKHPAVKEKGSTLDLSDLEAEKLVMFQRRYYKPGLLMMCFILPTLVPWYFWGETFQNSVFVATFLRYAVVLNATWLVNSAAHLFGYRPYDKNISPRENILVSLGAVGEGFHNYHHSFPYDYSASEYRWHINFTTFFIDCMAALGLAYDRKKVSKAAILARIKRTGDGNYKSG

Experiments:
human SCD5 = human SCD5 (Homo sapiens (Human), UniProt Q86SK9); test: Yeast growth assay, strain expressing human SCD5 as the sole desaturase (reduced growth as surrogate for SCD inhibition); type: cell-based; settings: read-out: SCD5 IC50; yeast with OLE1 deleted expressing human SCD5 from a plasmid; growth read as OD600 after 40 h at 30° C.; top drug concentration […]
human SCD1 = human SCD1 (Homo sapiens (Human), UniProt O00767); test: Yeast growth assay, strain expressing human SCD1 as the sole desaturase (reduced growth as surrogate for SCD inhibition); type: cell-based; settings: read-out: SCD1 IC50; yeast with OLE1 deleted expressing human SCD1 from a plasmid; growth read as OD600 after 40 h at 30° C.; top drug concentration […]

Structure (SMILES)	IC50 (human SCD5)	IC50 (human SCD1)
O=C(Nc1cn[nH]c1)c1cc(-c2ccccc2)on1	> 45 µM	> 45 µM
O=C(Nc1cn[nH]c1)c1cc(-c2ccco2)on1	21.5 µM	> 45 µM
